Laboratory results taken from paper PMC4379058, “The Biochemical Properties of the Arabidopsis Ecto-Nucleoside Triphosphate Diphosphohydrolase AtAPY1 Contradict a Direct Role in Purinergic Signaling” (PLoS ONE, 2015).

Amino acid sequences for entries named in this document (tags omitted). A change or cut given only in a name is not applied to a line headed by its entry.
UniProt Q9SQG2: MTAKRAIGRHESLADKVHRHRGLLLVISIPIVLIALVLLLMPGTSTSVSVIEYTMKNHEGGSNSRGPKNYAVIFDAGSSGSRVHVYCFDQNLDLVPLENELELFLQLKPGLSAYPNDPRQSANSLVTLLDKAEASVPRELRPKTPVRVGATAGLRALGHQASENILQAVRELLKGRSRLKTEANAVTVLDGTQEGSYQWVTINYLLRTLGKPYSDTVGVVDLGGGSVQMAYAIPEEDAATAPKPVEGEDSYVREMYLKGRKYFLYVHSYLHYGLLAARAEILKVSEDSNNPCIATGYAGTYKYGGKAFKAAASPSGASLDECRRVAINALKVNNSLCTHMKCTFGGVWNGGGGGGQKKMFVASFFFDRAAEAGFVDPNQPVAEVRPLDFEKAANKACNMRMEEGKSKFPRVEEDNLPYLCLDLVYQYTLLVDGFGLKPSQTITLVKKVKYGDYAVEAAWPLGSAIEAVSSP

Assays:
AtAPY1-GFP = AtAPY1-GFP (Arabidopsis thaliana, UniProt Q9SQG2); assay: discontinuous molybdate phosphate release assay; assay type: biochemical; conditions: 3 mM UDP substrate, 2 mM MgCl2, pH 6.5, 30°C; immobilised enzyme
AtAPY1 = AtAPY1 (Arabidopsis thaliana, UniProt Q9SQG2); assay: discontinuous molybdate phosphate release assay; conditions: 3 mM UDP substrate, 1 mM MgCl2, pH 6.5, 30°C

[N-]=[N+]=N
% inhibition (AtAPY1-GFP): The same inhibition pattern was found for AtAPY1-GFP
% inhibition at 10 mM (AtAPY1): 42%
